Consider one compound from PMC4960888, “Gd-nanoparticles functionalization with specific peptides for ß-amyloid plaques targeting” (Journal of Nanobiotechnology, 2016).

Chains of the proteins cited; added tags and fusions are not shown. Residues count along the entry.
UniProt P05067, 672-713 limits assumed: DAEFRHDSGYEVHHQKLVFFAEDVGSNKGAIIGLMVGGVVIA

In one test the target is Aβ(1–42) fibrils (Homo sapiens, UniProt P05067). Kind of test: Partition (spectrofluorometric) binding to Aβ(1–42) fibrils. The following applies: read-out: Kd, PIB partition binding; 20 µM fibrils, PIB 0.01–4 µM, 60 min room temperature, centrifugation; fluorescence λexc 350/λem 420 nm; Michaelis model 1:1.
The subject of the next test is V30M-TTR fibrils. The test can be described thus: Partition (spectrofluorometric) binding to V30M-TTR fibrils. The arrangement: species or system human. The note with it: read-out: Kd, PIB partition binding; 20 µM fibrils, PIB 0.01–4 µM, 60 min room temperature, centrifugation; fluorescence λexc 350/λem 420 nm; Michaelis model 1:1.
For test [1], the system named is Aβ amyloid plaques (APPswe/PS1A246E/TTR(−/−) transgenic mouse brain sections). Kind of test: Immunohistochemistry on AD mouse brain sections with amyloid plaques. The following applies: 10 months old APPswe/PS1A246E/TTR(−/−) hippocampus; nanoparticles at 3 nM Cy5.5 (2 mM Gd^3+) with 3 mM ungrafted nanoparticles, or PIB 1 µM; 1h30 RT; fluorescence.

Each structure is given as a SMILES string. pKd: −log10 of the molar value.

For `COc1ccc2nc(-c3ccc(N)cc3)sc2c1`, the figures for the pKd at Aβ(1–42) fibrils and with V30M-TTR fibrils were 5.22 and 5.00, respectively. Moreover, the “binding/staining of amyloid plaques in AD mouse brain sections” value in test [1] is “robust fluorescent dots with diffusing labeling localized in AD mouse hippocampus”.
